## AlphaSeq binding of Ab-14 light chain variants to a spike HR2 peptide

Source: Li et al. 2023 (doi:10.1038/s41467-023-39022-2), MIT Lincoln Laboratory and A-Alpha Bio; data file from the FLAb repository.

Target: peptide PDVDLGDISGINAS, taken from heptad repeat 2 (HR2) of SARS-CoV-2 spike.

Ab-14 is the parent antibody, in scFv form: VH, then a (GGGGS)3 linker, then VL. The heavy chain is unchanged in all variants.
VH: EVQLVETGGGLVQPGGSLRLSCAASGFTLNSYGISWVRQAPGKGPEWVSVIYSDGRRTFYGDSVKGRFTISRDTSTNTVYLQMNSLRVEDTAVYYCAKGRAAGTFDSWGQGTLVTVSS
VL: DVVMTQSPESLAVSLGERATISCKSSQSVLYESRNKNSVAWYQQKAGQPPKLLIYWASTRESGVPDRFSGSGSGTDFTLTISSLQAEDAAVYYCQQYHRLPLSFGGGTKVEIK

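The starting antibody came from a phage panning campaign against this peptide. The variants were designed computationally from a first round of random CDR variants and then made and measured. Several design methods are mixed in this list. In AlphaSeq, yeast of one mating type display the scFv and yeast of the other type display the target. Mating (16 h, 30 °C) was followed by selection of diploids and sequencing of their barcodes. Each replicate has its own calibration line, from reference interactions of the BCL2 family. Mating was done six times.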

Each variant is given by its three light chain CDRs, as the data file delimits them; those of the parent are KSSQSVLYESRNKNSVA, WASTRES, QQYHRLPLS. Variants here have more than six changes. Kd is apparent (estimated from mating counts) and averaged on the log scale over replicates with a signal. Smaller is tighter. "no signal" means that the variant was in the library but no mating with the target was seen in any replicate; the authors take this as a sign of poor binding, and no number exists. The range of this assay differs from that of the first round, and the authors advise against merging the two.

For KLPNSTLYESRQKNSVA / NASTRLS / QQYHRLPLS, the assay gave 3.2 nM (6 of 6 replicates; controls 2 of 18). For TISTSMRYESSLKNAIA / NAQTREE / QQYHRLPIS, the assay gave 2.3 nM (6 of 6 replicates; controls 1 of 18). The variant ILWQSQLYESRNKNSVA / NASKREM / QQYHRLPLS showed 12 nM (6 of 6 replicates; controls 0 of 18). The variant SLAFTQHFGQSGGSNVA / EVQMREQ / QQYFRLPLG showed 3.3 nM (6 of 6 replicates; controls 0 of 18). The variant KITATMRFEQKISNNIA / EVTTRSK / QQYYRLPLS showed 2.0 nM (6 of 6 replicates; controls 2 of 18). With KLMQEWEYQSRMKNSVA / HASERLS / QQYHRLPLS the result was 8.5 nM (6 of 6 replicates; controls 2 of 18).

With KVEQGVDDLERNDNSVA / WASTRES / QQYHRLPLS the result was 29 nM (6 of 6 replicates; controls 1 of 18). The variant HISESMYYQSRNKNNIA / EMTTRER / QHYHRLPLS showed 6.2 nM (6 of 6 replicates; controls 0 of 18). The variant HLSQMSGVESVKHNSVA / ENSTREE / QQYDRLPLT gave 180 nM (6 of 6 replicates; controls 2 of 18). With KSSNSVLYESRNSNNVA / WASTRAS / QQYDCLPLV the result was 510 nM (2 of 6 replicates; controls 0 of 18). The variant NLNDSDNQMPQMTSNIA / QTTLRNE / QQYAKLPLS gave 420 pM (6 of 6 replicates; controls 0 of 18). The variant HISSMDMHDGGIMHSIA / DTGITER / QQYMRLPLI gave 2.3 nM (6 of 6 replicates; controls 0 of 18).

For KISMLINTTFEVSNNVA / EMVTREK / QQYNRLPLS, the assay gave 310 nM (6 of 6 replicates; controls 0 of 18). The variant TIGGTLMMGYRNRSNVA / EVSERLN / QQYDRLPLF showed 45 nM (5 of 6 replicates; controls 1 of 18). The variant KLQMQVLMSSRNKNSVA / QANTRES / QQYHRLPLS showed 2.9 nM (6 of 6 replicates; controls 2 of 18). The variant KLYFNVGTMSHNQQSIA / DMERRED / QQYHRLPLS gave 1.7 nM (6 of 6 replicates; controls 1 of 18). The variant MFSQSVMYGSFYRNSVA / QTSTRED / QQYDRLPLS gave 11 nM (6 of 6 replicates; controls 0 of 18). With FLSQSVLYESRLDNSVA / NASQRCS / QQYHRLPLS the result was 6.3 nM (6 of 6 replicates; controls 2 of 18).

The variant KITHQMRTGMAQRNAMA / NGAMRVE / QFYSRLPLF gave 15 nM (6 of 6 replicates; controls 4 of 18). For MISQLYNIGQFAINSVA / QASTRNA / QQYDRLPLI, the assay gave 150 nM (2 of 6 replicates; controls 0 of 18). The variant VLAMESYGKSRHESNIA / GANMLAQ / QQYARLPFQ showed 1.1 nM (6 of 6 replicates; controls 2 of 18). The variant QIYQAMHTLMQTKDNVA / DVEERGS / QQYFRLPLS showed 59 nM (5 of 6 replicates; controls 1 of 18). The variant TISQSAQQESHTKNSVA / DLSVRGS / QQYHRLPLS showed 4.5 nM (6 of 6 replicates; controls 1 of 18). For MISQLMNLGQFAINSVA / QATIRNS / QQYDRLPLM, the assay gave 12 nM (5 of 6 replicates; controls 0 of 18).

The variant KLVQFMNRGTHHTSNIA / DAQNRMD / QQYARLPLF gave 2.6 nM (6 of 6 replicates; controls 1 of 18). For MISQLYNMGQFAINSVA / QAETRCN / QQYDRLPLE, the assay gave 34 nM (4 of 6 replicates; controls 0 of 18). The variant KLGGVTSYEMQNKNSVA / QMTTRES / QQYDRLPLS showed 1.4 nM (6 of 6 replicates; controls 0 of 18). The variant KVSQKDPMGSRNKNSVA / EASLRED / QQYHRLPLS showed 8.4 nM (6 of 6 replicates; controls 2 of 18). For TLTQSVGMESHNKNSVA / DLSTRGS / QQYNRLPLS, the assay gave 4.9 nM (6 of 6 replicates; controls 1 of 18). The variant ALSQSMDMTSRNMNSVA / DLSTREN / QQYHRLPLS gave 8.1 nM (6 of 6 replicates; controls 1 of 18).

The variant TIGMFLDNVSQNRNNVA / DTSTLGS / QSYDRLPLS gave 7.4 nM (6 of 6 replicates; controls 0 of 18). The variant KLSMGIEMNTRQNHNMA / EASLKPS / QQYNRLPFF showed 1.9 nM (6 of 6 replicates; controls 0 of 18). For KLQPSWLYEERNDNSVA / NASQRES / QDYHRLPLS, the assay gave 5.9 nM (6 of 6 replicates; controls 2 of 18). With MISQLMNTGQFAINSVA / QASERSN / QQYDRLPLI the result was 110 nM (6 of 6 replicates; controls 1 of 18). With ILNLSPMGHQIHMDAIA / QEAIRNQ / QQYARLPLS the result was no signal (0 of 6 replicates; controls 0 of 18). The variant KISQNMGETQRNKNSVA / EVSMVPS / QQYWRLPLS gave 18 nM (6 of 6 replicates; controls 1 of 18).

With KLSQSVLFWGHAINSVA / EMVTREN / QQYDRLPLS the result was 19 nM (6 of 6 replicates; controls 1 of 18). With KLSQVTHMEHRNKNSIA / EMVTREK / QQYDRLPLS the result was 16 nM (6 of 6 replicates; controls 0 of 18). For ILSDSVLMLSRNKNSVA / DNSTRES / QQYDRLPLS, the assay gave 270 nM (5 of 6 replicates; controls 1 of 18). The variant KLQQESDNMNSMQNSVA / EQSMVQY / QHYWRLPLT showed no signal (0 of 6 replicates; controls 0 of 18). The variant KLYMSTGYESRNQDSIA / DNSTRGR / QQYHRLPLS showed 28 nM (6 of 6 replicates; controls 2 of 18). The variant KISQFVNFEGKNKNSVA / QMSTRES / QQYDRLPLS showed 2.2 nM (6 of 6 replicates; controls 1 of 18).

The variant MISQLYNMGTFAINSVA / QAEIRNE / QQYDRLPLI gave 44 nM (3 of 6 replicates; controls 0 of 18). The variant SISGFMKSLSAHINSVA / DMTNREN / QQYERLPLS showed 3.8 nM (6 of 6 replicates; controls 0 of 18). With QMKASLSQGIYRQDSVA / SDDIRVL / QQYHHLPLS the result was 82 nM (6 of 6 replicates; controls 0 of 18). The variant KLSATYRYESQNKNSIA / EMSTREM / QCYHRLPLS showed 15 µM (1 of 6 replicates; controls 0 of 18). With KLGVSMGILEQYRNSVA / QNSTREE / QQYDHLPLS the result was 220 nM (5 of 6 replicates; controls 1 of 18). The variant KSSFSVLFESFNKNSVA / AASTRES / QVYHEDPLS gave 29 nM (4 of 6 replicates; controls 0 of 18).

The variant KLYSAKQGDIAQNQNVA / AADVLTQ / QQYNKLPLS showed 7.1 nM (6 of 6 replicates; controls 0 of 18).

The first 3 entries again:

CDR-L1	CDR-L2	CDR-L3	apparent Kd	detected	signal with controls
KLPNSTLYESRQKNSVA	NASTRLS	QQYHRLPLS	3.2 nM	6 of 6	2 of 18
TISTSMRYESSLKNAIA	NAQTREE	QQYHRLPIS	2.3 nM	6 of 6	1 of 18
ILWQSQLYESRNKNSVA	NASKREM	QQYHRLPLS	12 nM	6 of 6	0 of 18

In the paper, a design with two or fewer of six values counts as a poor binder. As a blank, each scFv also met three strains without target: over all light chain designs, 4% of these pairings were detected, typically at 430 nM and seldom below 38 nM. The control count says in how many pairings with the empty strains this scFv gave a signal. The parent sequence was in this pool as ten entries: three were never detected, three once, and four in most replicates, with averages from 2.2 nM to 240 nM.